Reference: publication doi:10.1101/2025.03.03.641346

Biological target: LH1 αβ-heterodimer of Dinoroseobacter shibae (Dinoroseobacter shibae DFL-12) (UniProt A8LQ15)
Experiment: cryo-EM structure

stoichiometry N: 17
Substance: LH1 αβ-heterodimer of Dinoroseobacter shibae (from UniProt A8LQ15 1-53; A8LQ14 1-49) (complex)
